The text below walks through data of patent US5460942A, “The catalytic moiety of the glucose-6-phosphatase system: the gene and protein and related mutations” (The United States of America as represented by the …, priority 1993, dated 1995).

Substrate in data set [1]: O=P(O)(O)OC[C@H]1OC(O)[C@H](O)[C@@H](O)[C@@H]1O
The experiment in a line: cells, lysate or membranes named. Conditions: other: deoxycholate-disrupted microsomes of pSVLmG-6-Pase-transfected COS-1 cells; mean ± SEM; pH 6.5.

Substrate in data set [2]: O=P(O)(O)OC[C@H]1OC(O)[C@@H](O)[C@@H](O)[C@@H]1O
The experiment in a line: cells, lysate or membranes named. Conditions: other: deoxycholate-disrupted microsomes of pSVLmG-6-Pase-transfected COS-1 cells; mean ± SEM; pH 6.5.

B1: murine G-6-Pase (Mus musculus) (protein)
chain: MEEGMNILHDFGIQSTRYLQVNYQDSQDWFILVSVIADLRNAFYVLFPIWFHLKETVGINLLWVAVVGDWFNLVFKWILFGQRPYWWVLDTDYYSNSSVPIIKQFPVTCETGPGSPSGHAMGAAGVYYVMVTSTLAIFRGKKKPTYGFRCLNVILWLGFWAVQLNVCLSRIYLAAHFPHQVVAGVLSGIAVAETFSHIRGIYNASLRKYCLITIFLFGFALGFYLLLKGLGVDLLWTLEKAKRWCERPEWVHLDTTPFASLFKNLGTLLGLGLALNSSMYRKSCKGELSKLLPFRFACIVASLVLLHLFDSLKPPSQVELIFYILSFCKSATVPFASVSLIPYCLARILGQTHKKSL
On to B1, for which the Km (in general, the substrate concentration at which the rate is half of its maximum) in data set [1] is 650 µM; in data set [2] it was 670 µM.
